Test results as given in ChEMBL document CHEMBL1275380, “Studies toward the structural optimization of novel thiazolylhydrazone-based potent antitrypanosomal agents” (Bioorg Med Chem, 2010).

By UniProt entry, the sequences of proteins in these tests, tags left out. Where a name states a change or a piece, a line headed by the entry shows the natural chain unless it says otherwise.
UniProt P25779: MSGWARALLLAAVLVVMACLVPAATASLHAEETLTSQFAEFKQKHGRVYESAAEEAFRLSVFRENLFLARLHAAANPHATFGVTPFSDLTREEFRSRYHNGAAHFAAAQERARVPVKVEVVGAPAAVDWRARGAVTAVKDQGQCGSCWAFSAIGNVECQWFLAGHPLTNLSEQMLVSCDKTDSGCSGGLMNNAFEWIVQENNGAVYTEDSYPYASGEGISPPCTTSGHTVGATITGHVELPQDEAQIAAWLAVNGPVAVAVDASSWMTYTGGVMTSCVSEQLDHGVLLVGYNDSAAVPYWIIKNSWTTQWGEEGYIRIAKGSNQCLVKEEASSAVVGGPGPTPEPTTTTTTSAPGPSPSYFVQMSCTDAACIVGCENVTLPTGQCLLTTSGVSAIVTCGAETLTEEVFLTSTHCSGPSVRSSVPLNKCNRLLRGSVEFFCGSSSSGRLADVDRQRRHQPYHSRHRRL

Molecular target: Cruzipain (Trypanosoma cruzi, UniProt P25779)
Test: Inhibition of Trypanosoma cruzi cruzaine pre-incubated for 10 mins

Compound `CC/C(=N\NC(N)=S)c1cccc(Br)c1` has an IC50 of 40 nM.
